Antibody variant affinities, Ab-95 light chain, assay 2

Source: Engelhart et al. 2022 (doi:10.1038/s41597-022-01779-4), MIT Lincoln Laboratory and A-Alpha Bio; data file from the FLAb repository.

Target peptide (SARS-CoV-2 spike, HR2 region): PDVDLGDISGINAS

The variants keep the heavy chain, the linker and the frameworks of Ab-95 (scFv order VH, three GGGGS repeats, VL).
VH: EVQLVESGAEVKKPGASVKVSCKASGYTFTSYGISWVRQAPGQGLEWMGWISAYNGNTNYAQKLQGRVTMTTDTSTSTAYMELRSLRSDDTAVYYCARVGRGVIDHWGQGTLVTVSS
VL: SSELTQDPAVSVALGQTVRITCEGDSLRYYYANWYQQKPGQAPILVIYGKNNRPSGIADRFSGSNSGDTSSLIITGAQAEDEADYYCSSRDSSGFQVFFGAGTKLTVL

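The parent was found by panning a naive human phage display library on the peptide. In library AAYL52, one, two or three CDR residues were substituted; doubles and triples were drawn at random. In AlphaSeq, yeast of one mating type display the scFv and yeast of the other type display the target. Pairs that bind mate more often; barcode pairs of the diploids are counted by sequencing. Read counts were normalised to the haploid input and turned into Kd by a linear fit to BCL2-family pairs of known affinity, for each replicate. There are three technical replicates.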

Variants are written as CDR1, CDR2 and CDR3 of the light chain (limits as in the source). Parent: EGDSLRYYYAN, GKNNRPS, SSRDSSGFQVF. Numbers give log10(Kd / nM), so 0 is 1 nM and 3 is 1 µM. Smaller is tighter. The mean shown is taken over the replicates in which the pair was detected. An entry "ND" has no value in the source: the pair was not observed among the diploids in that replicate. This suggests poor binding but is not conclusive. Background: pairings of library AAYL52 with three empty control strains gave a value in 28% of cases (median 3.91, 5th percentile 2.90). Values in that range, when seen in few replicates, are hard to tell from nonspecific mating. Also given: how often the same scFv was detected with the empty control strains, with their mean in brackets.

| CDR-L1 | CDR-L2 | CDR-L3 | log10 Kd, replicates | mean log10 Kd (nM) | signal with controls |
|---|---|---|---|---|---|
| EGDSLRYYYAN | GKNNRPS | SMRDSSGFQIP | 1.94 / 1.86 / 1.59 | 1.80 | 3 of 9 (4.67) |
| EGDSLRYYYAN | GKNNRPS | SERDSSGFPPF | 3.39 / 4.60 / ND | 3.99 | 2 of 9 (3.29) |
| EGDSLRYYYAN | GKNNRAS | SSRDSSGLQVF | 5.00 / 4.94 / ND | 4.97 | 3 of 9 (4.14) |
| CGDSLRYEYAN | GKNNRPS | SSRFSSGFQVF | ND / ND / ND | ND | 2 of 9 (2.69) |
| EGDSKRYYYAN | GKNNRPS | SSRDSEGFEVF | 3.78 / ND / ND | 3.78 | 1 of 9 (4.32) |
| QPDSLHYYYAN | GKNNRPS | SSRDSSGFQVF | 4.80 / 4.75 / 4.86 | 4.81 | 4 of 9 (4.51) |
| EGDSLRYYCAN | GKNARPS | SSRDSSGFQVF | 2.05 / 1.86 / 2.24 | 2.05 | 1 of 9 (3.08) |
| EDDSLRYYQAN | GKNNRPS | SSRDSSGTQVF | 2.49 / 2.67 / 2.34 | 2.50 | 4 of 9 (4.18) |
| EGNSLRYYYWN | GKNNRPS | SKRDSSGFQVF | ND / ND / ND | ND | 3 of 9 (5.00) |
| ETDSLRYYYAN | GKNNFPS | SSRSSSGFQVF | ND / ND / ND | ND | 4 of 9 (4.26) |
| EGDSLWYYYAN | GKMNCPS | SSRDSSGFQVF | 3.33 / ND / ND | 3.33 | 6 of 9 (4.35) |
| YGDSLRYYYAN | GKNNRPS | SSIDSSGFSVF | 3.18 / ND / ND | 3.18 | 3 of 9 (3.86) |
| EGDSLRYYYAN | GKFNRPS | SSRDSSGFQVF | 4.89 / ND / 4.46 | 4.68 | 3 of 9 (3.71) |
| EGDSLRKYIAN | GKNMRPS | SSRDSSGFQVF | ND / 2.86 / 3.44 | 3.15 | 1 of 9 (3.00) |
| EGFSLRYYYAP | GKNNRPS | SSRDSDGFQVF | 3.09 / ND / 4.30 | 3.70 | 3 of 9 (3.73) |
| EGDSLRYYYAN | GENNRPS | SSCDSSGFHVF | 2.90 / 3.42 / 2.42 | 2.91 | 4 of 9 (4.50) |
| EGDSLRYYYAN | EKNNRPS | SWRDSSGFMVF | 3.96 / 5.60 / 4.30 | 4.62 | 3 of 9 (3.76) |
| EGDSLRYYYAN | GKNNRPS | SSRNLSGFQKF | 4.44 / 5.91 / ND | 5.18 | 2 of 9 (4.88) |
| EGDSLRYYYAN | GKNNRPS | QMRDSSGFQVF | 2.77 / 2.16 / 3.41 | 2.78 | 1 of 9 (3.62) |
| EGDSLHYYYAN | GVNNRPS | SSRDSSGFQPF | 4.00 / ND / ND | 4.00 | 1 of 9 (3.62) |
| EGTSLRWYYAN | GKNNRPS | SSRFSSGFQVF | 3.89 / 4.78 / 3.46 | 4.04 | 3 of 9 (4.12) |
| EGDSLRYFYAN | GKNFRPN | SSRDSSGFQVF | 2.75 / 2.35 / 4.13 | 3.08 | 0 of 9 |
| EGDSLRYYPAN | GKNNRPS | LSRDSSGAQVF | 1.69 / 1.77 / 0.64 | 1.37 | 4 of 9 (4.59) |
| EGDSRIYYYAN | GKNNRPS | ISRDSSGFQVF | 4.27 / 4.50 / 4.40 | 4.39 | 6 of 9 (4.54) |
| EHDSLRYYYAN | GKNNRPS | SSRDSSGFQGT | ND / 4.97 / ND | 4.97 | 1 of 9 (4.14) |
| LGDSLRYYYAN | GKANRPS | SSRDSSGHQVF | ND / 4.35 / ND | 4.35 | 1 of 9 (3.86) |
| EGDSLQYYYAN | MKNGRPS | SSRDSSGFQVF | ND / 3.60 / ND | 3.60 | 4 of 9 (3.96) |
| EGDSLRYYYAN | YKNNRPS | SSRDSSGFPCF | 3.75 / ND / 4.30 | 4.03 | 4 of 9 (3.84) |
| EGDSLRYNYAV | GKNNRPS | ASRDSSGFQVF | 1.18 / 1.27 / 0.59 | 1.01 | 2 of 9 (3.82) |
| EGDSLRYYYEN | GKNNRPP | SSRDSIGFQVF | ND / ND / 3.56 | 3.56 | 2 of 9 (3.41) |
| FGDSLRYYYAN | GQNRRPS | SSRDSSGFQVF | 2.93 / 2.72 / 2.36 | 2.67 | 4 of 9 (4.19) |
| EGDSLRVYYAN | GKNNRLS | SSRDSSGFQQF | ND / 4.33 / ND | 4.33 | 4 of 9 (4.76) |
| ESDSLRRYYAN | GKNNRPS | SYRDSSGFQVF | 3.44 / 2.69 / ND | 3.07 | 5 of 9 (3.66) |
| EGDSLRYYYAN | GKNNRPS | CSRECSGFQVF | 3.11 / 2.83 / 2.81 | 2.92 | 5 of 9 (3.89) |
| EHDSLRYHYAN | GKNNRPS | SSRDSSGFQVD | 4.27 / ND / ND | 4.27 | 0 of 9 |
| EGDSLRPYYAN | GKNNRPS | SSRDSSGFQWR | 4.07 / 2.97 / 3.38 | 3.47 | 3 of 9 (4.09) |
| DGDSLTYYYAN | GKNNRPS | SSRDSSGFQWF | ND / ND / ND | ND | 0 of 9 |
| EGDSLRYYYAN | GSNNRPS | SSRDGSGFQVF | 4.44 / 3.95 / 4.66 | 4.35 | 6 of 9 (4.13) |
| EGDSLRYYYAN | GKNNRPS | CSRKSSGFQVF | ND / ND / 3.13 | 3.13 | 0 of 9 |
| EGDSLRYYYKN | GKRNFPS | SSRDSSGFQVF | 3.78 / 3.24 / 4.71 | 3.91 | 6 of 9 (4.15) |

From the list, the first 4 with no signal in any replicate:

| CDR-L1 | CDR-L2 | CDR-L3 | log10 Kd, replicates | mean log10 Kd (nM) | signal with controls |
|---|---|---|---|---|---|
| CGDSLRYEYAN | GKNNRPS | SSRFSSGFQVF | ND / ND / ND | ND | 2 of 9 (2.69) |
| EGNSLRYYYWN | GKNNRPS | SKRDSSGFQVF | ND / ND / ND | ND | 3 of 9 (5.00) |
| ETDSLRYYYAN | GKNNFPS | SSRSSSGFQVF | ND / ND / ND | ND | 4 of 9 (4.26) |
| DGDSLTYYYAN | GKNNRPS | SSRDSSGFQWF | ND / ND / ND | ND | 0 of 9 |

For reference, the parent read 2.31 as the reference entry and 2.25 as a member of this library.